Measurements reported in EP0141119A2, “Sulfenamide derivatives, process for their preparation, and medicaments containing these compounds” (LUDWIG HEUMANN & CO GMBH, priority 1983, dated 1985).

Amino acid sequences for entries named in this document (tags omitted).
UniProt P47747, whole entry: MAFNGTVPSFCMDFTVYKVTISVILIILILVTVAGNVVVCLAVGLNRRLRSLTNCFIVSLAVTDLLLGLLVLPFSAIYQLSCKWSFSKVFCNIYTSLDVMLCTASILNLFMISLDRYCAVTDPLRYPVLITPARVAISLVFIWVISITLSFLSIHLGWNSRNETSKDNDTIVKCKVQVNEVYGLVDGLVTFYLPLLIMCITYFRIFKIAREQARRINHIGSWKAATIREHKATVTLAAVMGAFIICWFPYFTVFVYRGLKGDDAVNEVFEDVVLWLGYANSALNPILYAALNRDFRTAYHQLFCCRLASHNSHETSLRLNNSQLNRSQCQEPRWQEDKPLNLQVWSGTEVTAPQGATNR

Target: T1, Histamin-H2-Rezeptoren (Cavia porcellus, UniProt P47747)
T1 construct: in vitro am isolierten rechten Vorhof des Meerschweinchens; from tissue; host or cells: isolated right atrium of the guinea pig
Experiment: Determination of pA2 values in vitro on the isolated right atrium of the guinea pig (H2-antagonistic activity)
Assay type: cell-based, Meerschweinchen
Excerpt: Die erfindungsgemäßen Verbindungen zeigen aufgrund ihrer spezifischen H2-antagonistischen Aktivität eine Hemmung der Magensäuresekretion, wenn diese durch Histaminagonisten stimuliert wird [Ash und Schild, "Brit. J. Pharmacol. Chemother.", 27, 427 (1966) und Black et al., "Nature", 236, 385 (1971)]. Die pharmakologische Aktivität dieser Verbindungen, wie sie genauer weiter unten beschrieben werden, kann nach einer modifizierten Methode gemäß der DE-OS 27 34 070 beim perfundierten Rattenmagen gezeigt werden oder durch die Ermittlung der pA2-Werte in vitro am Meerschweinchenvorhof (vgl. Ariens, Molecular Pharmacology, Band 1, Academic Press, New York, 1964) nachgewiesen werden. Weiterhin kann die H2-antagonistische Wirkung an wachen Heidenhain-Pouch-Hunden nach der Methode von Black et al., "Nature", 236, 385 (1971) gezeigt werden. Die neuen Verbindungen antagonisieren weiterhin die Histaminwirkung auf die Kontraktionsfrequenz des isolierten rechten Atriums des Meerschweinchens, aber sie beeinflussen nicht histamininduzierte Kontrakti men des isolierten, glatten gastrointestinalen Muskels, wenn diese durch H2-Agonisten hervorgerufen werden.
Eine anerkannte Methode zur Bestimmung H2-antagonistischer Wirksamkeit ist die Ermittlung der pA2-Werte in vitro am isolierten rechten Vorhof des Meerschweinchens.

**Q.** `CN/C(=N/CCSCc1nc[nH]c1C)NC#N` [Cimetidin] was tested. Which Kb did it give?
**A.** 490 nM
